From patent publication US20230145835A1, “Modulators of Alpha-4-beta-7 Integrin and MAdCAM” (48HD Biopharma Inc., priority 2021, published 2023) come the findings set out here.

Molecules are shown by their SMILES.

The term IC50 denotes the point on the concentration scale where inhibition reaches its midpoint.

For the assay, the target named is T1, rh-integrin α4β7/LPAM-1 (Homo sapiens, UniProt P13612+P26010).
T1 sequence (P13612 34-977 limits assumed): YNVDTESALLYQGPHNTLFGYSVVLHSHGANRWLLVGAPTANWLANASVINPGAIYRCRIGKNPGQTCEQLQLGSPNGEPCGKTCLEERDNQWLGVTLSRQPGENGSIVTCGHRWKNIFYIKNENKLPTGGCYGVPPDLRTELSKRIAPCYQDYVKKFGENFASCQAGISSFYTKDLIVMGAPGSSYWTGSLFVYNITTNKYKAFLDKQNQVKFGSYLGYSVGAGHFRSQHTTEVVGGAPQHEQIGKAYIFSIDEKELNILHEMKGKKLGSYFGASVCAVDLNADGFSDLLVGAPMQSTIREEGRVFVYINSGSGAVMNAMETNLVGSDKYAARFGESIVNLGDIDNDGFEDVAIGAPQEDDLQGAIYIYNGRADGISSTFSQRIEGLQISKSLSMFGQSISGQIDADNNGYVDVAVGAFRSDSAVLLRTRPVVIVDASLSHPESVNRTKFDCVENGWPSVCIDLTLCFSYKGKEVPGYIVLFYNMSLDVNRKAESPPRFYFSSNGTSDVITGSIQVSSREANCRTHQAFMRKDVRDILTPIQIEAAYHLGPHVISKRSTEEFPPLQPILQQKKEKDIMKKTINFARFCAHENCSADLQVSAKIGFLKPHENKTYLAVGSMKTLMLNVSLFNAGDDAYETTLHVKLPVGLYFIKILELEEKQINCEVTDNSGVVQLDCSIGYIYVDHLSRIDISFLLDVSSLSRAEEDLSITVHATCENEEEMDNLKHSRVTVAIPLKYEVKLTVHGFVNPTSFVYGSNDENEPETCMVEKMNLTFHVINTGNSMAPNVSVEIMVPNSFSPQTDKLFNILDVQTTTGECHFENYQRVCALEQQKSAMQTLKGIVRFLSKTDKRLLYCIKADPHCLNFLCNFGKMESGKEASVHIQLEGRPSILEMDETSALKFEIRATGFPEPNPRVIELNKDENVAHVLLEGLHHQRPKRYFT
T1 sequence (P26010 20-723 limits assumed): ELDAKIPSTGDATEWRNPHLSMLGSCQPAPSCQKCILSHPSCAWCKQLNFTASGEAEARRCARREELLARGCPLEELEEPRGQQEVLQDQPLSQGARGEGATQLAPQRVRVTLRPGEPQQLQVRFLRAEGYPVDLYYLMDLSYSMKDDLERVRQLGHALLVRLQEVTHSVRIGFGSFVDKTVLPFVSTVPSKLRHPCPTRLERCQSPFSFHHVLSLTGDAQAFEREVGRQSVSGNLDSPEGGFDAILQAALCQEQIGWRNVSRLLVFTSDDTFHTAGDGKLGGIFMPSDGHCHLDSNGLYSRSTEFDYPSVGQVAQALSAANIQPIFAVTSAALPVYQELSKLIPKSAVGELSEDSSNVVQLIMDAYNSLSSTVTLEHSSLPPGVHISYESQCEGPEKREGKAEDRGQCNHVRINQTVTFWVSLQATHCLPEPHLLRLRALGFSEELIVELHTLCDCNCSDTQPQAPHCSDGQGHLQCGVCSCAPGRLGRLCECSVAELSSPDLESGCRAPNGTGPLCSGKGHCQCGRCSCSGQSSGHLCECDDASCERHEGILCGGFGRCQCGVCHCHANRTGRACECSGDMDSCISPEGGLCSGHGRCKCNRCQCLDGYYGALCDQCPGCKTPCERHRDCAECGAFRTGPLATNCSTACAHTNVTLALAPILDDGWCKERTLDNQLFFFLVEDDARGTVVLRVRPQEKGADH
Briefly: α4β7-MadCAM Competition ELISA (Example 4). To be noted: IC50, Table 3 Representative compounds; inhibition of MAdCAM binding to coated α4β7. The procedure: After washing with wash buffer, 200 μL assay buffer was added to each well and incubated for one hour at 28° C. After another wash with wash buffer, 100 μL of a MAdCAM and peptide mixture in assay buffer was added to each well and incubated for one hour at 28° C., followed by washing with wash buffer.
(ELISA stands for enzyme-linked immunosorbent assay.)

In turn, `CCCC[C@@H]1NC(=O)[C@@H]2CCCN2C(=O)[C@@H]2CSCc3cc(cc(c3)OCCCCCCO/N=C/C(=O)N[C@@H](CCC(N)=O)C(=O)N2)CSC[C@@H](C(N)=O)NC(=O)[C@H]([C@@H](C)O)NC(=O)[C@H](C)NC(=O)[C@H]([C@@H](C)CC)NC(=O)[C@H](CC(=O)O)NC1=O` [compound 64, TSL6-SQCP{Nle}DIATC] had a concentration for half-maximal inhibition (IC50) of 10.7 µM.
